Measured values taken from patent US20260273076A1, “PHARMACEUTICAL COMPOSITIONS AND METHOD OF TREATMENT OF METASTATIC AND OTHER CANCERS” (Favorite Pharmaceuticals, priority 2023, published 2026).
Where two headings read alike, the source gives them in different places.

Legend:
[1] = for Concentration in Mouse Plasma: Group 2, 200 mg/kg IV
[2] = tested on: A549, HL-60, Raji B, Panc-1, and PC3 cancer cell lines; details: 300 μM, 4-5 h period, 5 cell lines

Substance | Concentration in Mouse Plasma ([1]; 3.00 hrs, Animal 3) | Concentration in Mouse Plasma ([1]; 8.00 hrs, Animal 3) | Concentration in Mouse Plasma ([1]; 24.0 hrs, Animal 1) | Concentration in Mouse Plasma ([1]; 24.0 hrs, Animal 2) | Concentration in Mouse Plasma ([1]; 24.0 hrs, Animal 3) | optimal tolerated dose ([1]; mice, preliminary evaluation) [milligrams per kilo] | time out to which CMax was maintained ([1]; mice, preliminary evaluation, CMax very rapidly achieved) | reduction in cell viability [2]
polyethylene glycol octadecyl ether [C18-Ether-PEG-1000] | BQLa (Below Quantitation Limit (<10,000 ng/mL)) | BQLa (Below Quantitation Limit (<10,000 ng/mL)) | BQLa (Below Quantitation Limit (<10,000 ng/mL)) | BQLa (Below Quantitation Limit (<10,000 ng/mL)) | BQLa (Below Quantitation Limit (<10,000 ng/mL)) | 200 | approximately 4 hours | –
polyethylene glycol octadecyl ether [C18-Ether-PEG-5000] | – | – | – | – | – | – | – | up to 50%
